The text below walks through data of patent US11472788B2, “Benzoimidazoles as selective inhibitors of indoleamine 2,3-dioxygenases” (BEIGENE, LTD., priority 2017, dated 2022).

Protein sequences, listed by entry. Tags and fused reporters are not part of them.
UniProt P14902, whole entry: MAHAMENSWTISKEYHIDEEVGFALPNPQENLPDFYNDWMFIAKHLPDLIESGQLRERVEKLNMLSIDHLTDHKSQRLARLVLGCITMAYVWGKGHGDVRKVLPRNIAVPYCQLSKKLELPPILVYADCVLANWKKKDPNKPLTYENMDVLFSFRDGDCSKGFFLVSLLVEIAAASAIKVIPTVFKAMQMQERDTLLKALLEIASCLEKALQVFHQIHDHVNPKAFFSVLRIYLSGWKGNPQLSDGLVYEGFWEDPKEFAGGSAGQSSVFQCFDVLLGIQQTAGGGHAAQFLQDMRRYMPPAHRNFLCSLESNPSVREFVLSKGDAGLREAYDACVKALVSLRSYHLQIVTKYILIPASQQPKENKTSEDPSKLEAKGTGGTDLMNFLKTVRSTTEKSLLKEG

This assay addresses cellular IDO1 in HeLa cells (Homo sapiens (Human), UniProt P14902). Description: HeLa Cell-Based IDO1 Kyn (Kynurenine) Production Assay. To be noted: read-out: Cell-Based EC50 (nM) Hela IDO1, IFN-γ induced IDO1, 48 hours incubation, Kyn absorbance at 480 nm. As to the method:
HeLa Cell-Based IDO1 Kyn (Kynurenine) Production Assay:
The inhibitory activity of IDO1 inhibitors is determined by using a colorimetric reaction to measure Kyn generated from L-Trp (L-Tryptophon) oxidation by cellular IDO1 in HeLa cells after induction of IDO1 expression by IFN-γ.
Hela cells were obtained from the American Type Culture Collection and recovered in 10% FBS-containing phenol red-free DMEM medium. Cells were plated onto a 96-well plate (100 μl/well) at 8000 cells per well and kept at 37° C. in a humidified incubator supplied with 5% CO2. 4 hours later, Human recombinant IFN-γ (8901SC, CST) was added to cells (final concentration 100 ng/mL) to stimulate endogenous IDOL. Compounds at different concentrations diluted in dimethylsulfoxide (DMSO) were added simultaneously with IFN-γ and 0.4 mM L-Trp. Cells were kept at 37° C. in a humidified incubator supplied with 5% CO2. After 48 hours of incubation, 100 μl supernatant from each well was removed to a new plate. The protein in the medium was precipitated with the addition of 8 μl 6N trichloroacetic acid. The plate was incubated at 60° C. for 30 minutes and then centrifugation at 2500 rpm for 10 minutes to remove sediments. 80 μl supernatants were carefully removed to a new clean plate and added with an equal volume of 2% 4-(Dimethylamino)benzaldehyde (D2004, sigma) dissolved in glacial acetic acid. The absorbance at 480 nm wavelength derived from Kyn was measured using a PHERAstar FS plate reader (BMG LABTECH). The IC5C for each compound was derived from fitting the dose-response data to the four-parameter logistic model by using XLfit software (IDBS).

A word on the EC50: it is the concentration at which the effect is half-maximal. Turning to `C[C@@H](c1nc2cc(F)c(-c3ccncc3)cc2[nH]1)[C@H]1CC[C@@H](c2ccnc3ccc(F)cc32)CC1`, the EC50 came out at 24.3 nM. For the molecule `C[C@H](c1nc2cc(F)c(-c3ccncc3)cc2[nH]1)[C@H]1CC[C@@H](c2ccnc3ccc(F)cc32)CC1`, the EC50 turned out to be 50 nM. On to `C[C@@H](c1nc2cc(F)c(-c3cccnc3)cc2[nH]1)[C@H]1CC[C@@H](c2ccnc3ccc(F)cc32)CC1`, for which the EC50 stood at 4.7 nM.
